Columns and labels:
[1] = biological target: beta-catenin/TCF4 interaction (Homo sapiens, UniProt P35222); assay: cell-based; set-up: host or cells: HEK293; settings: NanoBRET Abs IC50 (uM)
[2] = biological target: T1, full-length B-Catenin (Uniprot ID P35222) (Homo sapiens, UniProt P35222); assay: biochemical; type: binding; settings: beta-Catenin FP IC50 (nM), competition fluorescence polarization
T1 construct: 10 nM full-length B-Catenin (Uniprot ID P35222)

Amino acid sequences for entries named in this document (tags omitted).
UniProt P35222, whole entry: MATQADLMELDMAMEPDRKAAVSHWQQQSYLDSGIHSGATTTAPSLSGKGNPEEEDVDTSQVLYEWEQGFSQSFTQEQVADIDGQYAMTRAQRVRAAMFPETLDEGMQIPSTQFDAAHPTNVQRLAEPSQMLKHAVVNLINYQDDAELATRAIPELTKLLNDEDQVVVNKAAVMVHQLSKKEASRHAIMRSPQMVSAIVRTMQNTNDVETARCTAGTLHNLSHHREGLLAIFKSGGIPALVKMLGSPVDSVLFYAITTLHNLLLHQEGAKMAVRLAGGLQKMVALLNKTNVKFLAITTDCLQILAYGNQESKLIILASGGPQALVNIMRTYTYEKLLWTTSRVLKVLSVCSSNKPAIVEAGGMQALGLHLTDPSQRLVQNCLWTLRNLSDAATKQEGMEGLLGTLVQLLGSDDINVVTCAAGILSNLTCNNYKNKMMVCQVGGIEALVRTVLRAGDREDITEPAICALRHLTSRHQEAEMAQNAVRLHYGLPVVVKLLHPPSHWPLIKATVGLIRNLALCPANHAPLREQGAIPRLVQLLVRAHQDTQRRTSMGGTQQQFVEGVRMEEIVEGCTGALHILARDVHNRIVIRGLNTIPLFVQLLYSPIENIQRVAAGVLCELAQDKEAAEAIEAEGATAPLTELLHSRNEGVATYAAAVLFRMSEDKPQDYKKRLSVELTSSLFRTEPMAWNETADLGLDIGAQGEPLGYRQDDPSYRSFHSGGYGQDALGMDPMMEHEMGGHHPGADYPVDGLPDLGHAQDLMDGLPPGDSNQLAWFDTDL

| SMILES | IC50 [1] [µM] | IC50 [2] [nM] |
| --- | --- | --- |
| CC(=O)N1CCC[C@]12CC=CCCCC1(CCCC=CCCCOC(=O)N3CC[C@@]4(C3)NC(=O)[C@H](CCCC(=O)N(C(C)C)CCCC[C@@H](C(=O)N[C@@H](C)C(N)=O)NC(=O)[C@H](Cc3csc5ccccc35)NC(=O)[C@H](Cc3ccccc3C(F)(F)F)NC4=O)NC(=O)[C@H](Cc3ccccc3)NC(=O)[C@H](C)NC(=O)[C@H](C)NC(=O)[C@H](Cc3cccc(C(=O)O)c3)NC(=O)[C@H](CC(=O)O)NC1=O)NC(=O)[C@H](CC(C)(C)C)NC(=O)[C@H](CC(=O)O)NC2=O (relative stereo) [I-189, Ac-PL3-Asp-Npg-B5-Asp-3COOHF-Ala-Ala-Phe-hGlnR*3-PyrS2-2F3MeF-BztA-iPrLys*3-Ala-NH2] | 3 to 10 | < 50 |
| CC(=O)N1CCC[C@]12CC=CCCCC1(CCCC=CCCCOC(=O)N3CC[C@@]4(C3)NC(=O)[C@H](CCCCN(C(C)C)C(=O)CC[C@@H](C(=O)N[C@@H](C)C(N)=O)NC(=O)[C@H](Cc3csc5ccccc35)NC(=O)[C@H](Cc3ccccc3C(F)(F)F)NC4=O)NC(=O)[C@H](Cc3ccccc3)NC(=O)[C@H](C)NC(=O)[C@H](C)NC(=O)[C@H](Cc3cccc(C(=O)O)c3)NC(=O)[C@H](CC(=O)O)NC1=O)NC(=O)[C@H](CC(C)(C)C)NC(=O)[C@H](CC(=O)O)NC2=O (relative stereo) [I-191, Ac-PL3-Asp-Npg-B5-Asp-3COOHF-Ala-Ala-Phe-iPrLys*3-PyrS2-2F3MeF-BztA-GlnR*3-Ala-NH2] | 3 to 10 | 50 to 200 |
| CC(=O)N1CCC[C@]12CC=CCCCC1(CCCC=CCCCOC(=O)N3CC[C@@]4(C3)NC(=O)[C@H](CCCCNC(=O)CC[C@@H](C(=O)N[C@@H](C)C(N)=O)NC(=O)[C@H](Cc3csc5ccccc35)NC(=O)[C@H](Cc3ccccc3C(F)(F)F)NC4=O)NC(=O)[C@H](Cc3ccccc3)NC(=O)[C@H](C)NC(=O)C(C)(C)NC(=O)[C@H](Cc3ccc(C(=O)O)cc3)NC(=O)[C@H](CC(=O)O)NC1=O)NC(=O)[C@H](CC(C)(C)C)NC(=O)[C@H](CC(=O)O)NC2=O (relative stereo) [I-196, Ac-PL3-Asp-Npg-B5-Asp-4COOHF-Aib-Ala-Phe-Lys*3-PyrS2-2F3MeF-BztA-GlnR*3-Ala-NH2] | 3 to 10 | 50 to 200 |
| CC(=O)N1CCC[C@]12CC=CCCCC1(CCCC=CCCCOC(=O)N3CC[C@@]4(C3)NC(=O)[C@H](CCCCNC(=O)CC[C@@H](C(=O)N[C@@H](C)C(N)=O)NC(=O)[C@H](Cc3csc5ccccc35)NC(=O)[C@H](Cc3ccccc3C(F)(F)F)NC4=O)NC(=O)[C@H](Cc3ccccc3)NC(=O)[C@H](C)NC(=O)C(C)(C)NC(=O)[C@H](Cc3ccccc3C(=O)O)NC(=O)[C@H](CC(=O)O)NC1=O)NC(=O)[C@H](CC(C)(C)C)NC(=O)[C@H](CC(=O)O)NC2=O (relative stereo) [I-197, Ac-PL3-Asp-Npg-B5-Asp-2COOHF-Aib-Ala-Phe-Lys*3-PyrS2-2F3MeF-BztA-GlnR*3-Ala-NH2] | 1.5 to 3 | < 50 |
| CC(=O)N1CCC[C@]12CC=CCCCC1(CCCC=CCCCOC(=O)N3CC[C@@]4(C3)NC(=O)[C@H](CCCCNC(=O)CC[C@@H](C(=O)N[C@@H](C)C(N)=O)NC(=O)[C@H](Cc3csc5ccccc35)NC(=O)[C@H](Cc3ccccc3C(F)(F)F)NC4=O)NC(=O)[C@H](Cc3ccccc3)NC(=O)[C@H](C)NC(=O)C(C)(C)NC(=O)[C@H](CCC(=O)O)NC(=O)[C@H](CC(=O)O)NC1=O)NC(=O)[C@H](CC(C)(C)C)NC(=O)[C@H](CC(=O)O)NC2=O (relative stereo) [I-198, Ac-PL3-Asp-Npg-B5-Asp-Glu-Aib-Ala-Phe-Lys*3-PyrS2-2F3MeF-BztA-GlnR*3-Ala-NH2] | 3 to 10 | < 50 |
